Measured values published in patent US9776995B2, “Bicyclic sulfonamide compounds as sodium channel inhibitors” (AMGEN INC., priority 2013, dated 2017).
One block for each molecule: values may come before it.

The chains behind the UniProt entries cited, without tags or fusion partners.
UniProt Q15858, whole entry: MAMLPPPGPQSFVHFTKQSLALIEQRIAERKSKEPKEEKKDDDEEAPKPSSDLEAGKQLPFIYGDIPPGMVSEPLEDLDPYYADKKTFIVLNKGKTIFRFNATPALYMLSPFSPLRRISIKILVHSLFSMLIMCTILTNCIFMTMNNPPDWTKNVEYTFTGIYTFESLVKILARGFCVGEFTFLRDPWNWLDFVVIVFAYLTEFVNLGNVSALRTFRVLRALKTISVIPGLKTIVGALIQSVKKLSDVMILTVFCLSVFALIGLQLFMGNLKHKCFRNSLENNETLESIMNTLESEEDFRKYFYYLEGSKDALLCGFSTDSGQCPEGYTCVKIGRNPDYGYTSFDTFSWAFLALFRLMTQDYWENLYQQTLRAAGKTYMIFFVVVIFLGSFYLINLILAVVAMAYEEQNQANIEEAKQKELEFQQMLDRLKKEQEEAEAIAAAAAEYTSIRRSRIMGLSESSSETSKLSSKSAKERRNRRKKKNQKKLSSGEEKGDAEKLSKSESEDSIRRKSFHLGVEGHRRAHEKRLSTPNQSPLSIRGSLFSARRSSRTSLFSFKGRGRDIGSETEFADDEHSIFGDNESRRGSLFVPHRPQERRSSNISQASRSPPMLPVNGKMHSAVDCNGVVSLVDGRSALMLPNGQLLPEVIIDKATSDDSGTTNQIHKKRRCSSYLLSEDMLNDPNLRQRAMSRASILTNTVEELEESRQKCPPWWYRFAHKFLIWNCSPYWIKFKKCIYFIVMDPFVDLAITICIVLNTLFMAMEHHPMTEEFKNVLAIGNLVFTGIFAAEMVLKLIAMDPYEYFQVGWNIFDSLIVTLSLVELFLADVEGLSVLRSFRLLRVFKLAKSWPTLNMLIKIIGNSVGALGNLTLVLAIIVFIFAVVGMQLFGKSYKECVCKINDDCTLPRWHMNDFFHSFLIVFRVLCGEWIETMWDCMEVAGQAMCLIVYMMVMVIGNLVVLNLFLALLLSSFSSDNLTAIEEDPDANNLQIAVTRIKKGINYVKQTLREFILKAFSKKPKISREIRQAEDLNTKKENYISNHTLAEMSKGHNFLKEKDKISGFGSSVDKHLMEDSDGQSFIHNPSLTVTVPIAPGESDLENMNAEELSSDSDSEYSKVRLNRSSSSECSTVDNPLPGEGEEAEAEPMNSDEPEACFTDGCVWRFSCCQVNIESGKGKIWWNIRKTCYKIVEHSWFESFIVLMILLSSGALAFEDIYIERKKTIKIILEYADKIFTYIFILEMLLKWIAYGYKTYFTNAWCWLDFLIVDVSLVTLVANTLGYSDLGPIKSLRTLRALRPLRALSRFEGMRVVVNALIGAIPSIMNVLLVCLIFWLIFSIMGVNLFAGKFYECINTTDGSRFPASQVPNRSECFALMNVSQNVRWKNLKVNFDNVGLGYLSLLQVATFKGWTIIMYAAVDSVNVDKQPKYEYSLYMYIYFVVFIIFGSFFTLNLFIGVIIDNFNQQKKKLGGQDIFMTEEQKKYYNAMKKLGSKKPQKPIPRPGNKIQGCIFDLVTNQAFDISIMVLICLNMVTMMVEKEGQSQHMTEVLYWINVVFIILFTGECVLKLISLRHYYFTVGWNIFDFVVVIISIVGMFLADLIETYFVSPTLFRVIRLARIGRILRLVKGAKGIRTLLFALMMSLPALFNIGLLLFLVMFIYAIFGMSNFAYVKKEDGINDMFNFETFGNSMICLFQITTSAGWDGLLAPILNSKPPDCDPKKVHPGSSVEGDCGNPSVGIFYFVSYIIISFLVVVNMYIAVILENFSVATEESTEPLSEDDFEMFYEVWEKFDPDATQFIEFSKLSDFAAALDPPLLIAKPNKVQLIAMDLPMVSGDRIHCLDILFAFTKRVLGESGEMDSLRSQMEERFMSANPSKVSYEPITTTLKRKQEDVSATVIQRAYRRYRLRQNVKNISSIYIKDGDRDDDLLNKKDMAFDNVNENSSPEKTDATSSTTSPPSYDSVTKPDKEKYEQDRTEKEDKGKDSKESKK

Biological target: Nav 1.7 (Homo sapiens (Human), UniProt Q15858)
Experiment: in-vitro Nav 1.7 PX data
Assay type: cell-based

SMILES: COc1cc(-c2ccc(C)c(F)c2)c(C#N)cc1-c1nccc2cc(S(=O)(=O)Nc3ccon3)ccc12 [Example 81, 1-(2-cyano-3′-fluoro-5-methoxy-4′-methyl-4-biphenylyl)-N-3-isoxazolyl-6-isoquinolinesulfonamide]
IC50 (PatchXpress (PX), in vitro): 0.0903 µM

SMILES: COc1cc(-c2cc(C)cc(F)c2)c(C#N)cc1-c1nccc2cc(S(=O)(=O)Nc3ccncn3)ccc12 [Example 164, 1-(2-cyano-3′-fluoro-5-methoxy-5′-methyl-4-biphenylyl)-N-4-pyrimidinyl-6-isoquinolinesulfonamide]
IC50 (in-vitro Nav 1.7 PX data): 0.0924 µM

SMILES: COc1cc(-c2cc(C)c(C)cc2C)c(C#N)cc1-c1nccc2cc(S(=O)(=O)Nc3ccncn3)ccc12 [Example 165, 1-(2-cyano-5-methoxy-2′,4′,5′-trimethyl-4-biphenylyl)-N-4-pyrimidinyl-6-isoquinolinesulfonamide]
IC50 (in-vitro Nav 1.7 PX data): 0.0306 µM

SMILES: COc1ccc(F)cc1-c1cc(OC)c(-c2ncnc3cc(S(=O)(=O)Nc4ccon4)ccc23)cc1C [Example 191, 4-(5′-fluoro-2′,5-dimethoxy-2-methyl-4-biphenylyl)-N-3-isoxazolyl-7-quinazolinesulfonamide]
IC50 (in-vitro PX (PatchXpress) data): 0.0447 µM

SMILES: COc1cc(-c2cccc(F)c2)c(Cl)cc1-c1ncnc2cc(S(=O)(=O)Nc3ccon3)ccc12 [Example 227, 4-(2-chloro-3′-fluoro-5-methoxy-4-biphenylyl)-N-3-isoxazolyl-7-quinazolinesulfonamide]
IC50 (in-vitro PX): 0.0369 µM

More lines, now with the values ahead:

IC50 (in-vitro PX): 0.0133 µM
SMILES: COc1cc(-c2ccc(Cl)c(C)c2)c(C#N)cc1-c1nccc2cc(S(=O)(=O)Nc3nncs3)ccc12 [Example 228, 1-(4′-chloro-2-cyano-5-methoxy-3′-methyl-4-biphenylyl)-N-1,3,4-thiadiazol-2-yl-6-isoquinolinesulfonamide]

IC50 (in-vitro PX): 0.0784 µM
SMILES: COc1cc(-c2cccc(C(F)(F)F)c2)c(F)cc1-c1nn(C)c(=O)c2cc(S(=O)(=O)Nc3nncs3)ccc12 [Example 234, 1-(2-fluoro-5-methoxy-3′-(trifluoromethyl)-4-biphenylyl)-3-methyl-4-oxo-N-1,3,4-thiadiazol-2-yl-3,4-dihydro-6-phthalazinesulfonamide]
